Data on one molecule can be found in patent US20210032352A1 (ANTERA THERAPEUTICS, published 2021).

What all share (assay): kinetic table of the IgG; KD marked '*…' (bivalent IgG); method not named for this figure (SPR protocol in paragraph 207)
For test [1], the target named is T1, FZD2 CRD, Fc-tagged (human, UniProt Q14332 24-190).
T1 construct: domain: CRD; Bought; not shown: Fc tag of the purchased fusion

Test [2] deals with FZD7 CRD, Fc-tagged (human, UniProt O75084 33-185).
For test [3], the target named is T2, FZD1 CRD, Fc-tagged (human, UniProt Q9UP38 70-250).
T2 construct: domain: CRD; Bought; not shown: Fc tag of the purchased fusion

B1: pan-FZD antibody 5019 (antibody, V domains shown)
VH: EVQLVESGGGLVQPGGSLRLSCAASGFNIGSSSIHWVRQAPGKGLEWVASIYSAFASTSYADSVKGRFTISADTSKNTAYLQMNSLRAEDTAVYYCARYHFPFGFALDYWGQGTLVTVSS
VL: DIQMTQSPSSLSASVGDRVTITCRASQSVSSAVAWYQQKPGKAPKLLIYSASSLYSGVPSRFSGSRSGTDFTLTISSLQPEDFATYYCQQGVYLFTFGQGTKVEIK
notes: also called F^P; FP
Consider B1, for which the Kd in test [1] is 0.0239 nM; in test [2], 0.0123 nM; in test [3], 0.0251 nM.
